The text below walks through data of patent US11628186B2, “Method and composition for the reduction of viral replication, duration and spread of the COVID-19 and the flu” (priority 2017, dated 2023).

For series [1], the system named is patients with sinus & lung diseases including IPF and COPD. As to the kind of experiment: Salts of pyruvate as 20 mM nasal sprays (Table IX). The note with it: 20 mM (0.22%) nasal spray in 0.9% sodium chloride.
The subject of series [2] is patients with lung diseases including COPD. Briefly: Comparison of inhaled salts of pyruvate, 5 ml of 5 mM solution (Table II).
Series [3] has the same test system. As to the kind of experiment: Comparison of inhaled salts of pyruvate, 5 ml of 0.5 mM solution (Table I).
The mark [4] stands for this setting: 5 ml of 0.5 mM solution, inhaled.

With manganese pyruvate, the Irritation entry in series [1] is “Yes”; in series [2], “Yes”; in series [3] (setting [4]) it was “Yes”; in series [3] (inhaled into the lungs), “irritating”.
For the substance aluminum pyruvate, the Irritation result in series [1] is “Yes”; in series [2] it was “Yes”; in series [3] (setting [4]), “Yes”; in series [3] (inhaled into the lungs), “irritating”.
